Laboratory results published in ChEMBL document CHEMBL2169798, “Discovery of a Plasmodium falciparum glucose-6-phosphate dehydrogenase 6-phosphogluconolactonase inhibitor (R,Z)-N-((1-ethylpyrrolidin-2-yl)methyl)-2-(2-fluorobenzylidene)-3-oxo-3,4-dihydro-2H-benzo[b][1,4]thiazine-6-carboxamide (ML276) that reduces parasite growth in vitro” (J Med Chem, 2012).

Legend:
[1] = biological target: T1, Glucose-6-phosphate 1-dehydrogenase (Plasmodium falciparum, UniProt Q25856); assay: Inhibition of Plasmodium falciparum glucose-6-phosphate dehydrogenase after 45 mins by orthogonal assay
T1 sequence (Q25856 whole entry): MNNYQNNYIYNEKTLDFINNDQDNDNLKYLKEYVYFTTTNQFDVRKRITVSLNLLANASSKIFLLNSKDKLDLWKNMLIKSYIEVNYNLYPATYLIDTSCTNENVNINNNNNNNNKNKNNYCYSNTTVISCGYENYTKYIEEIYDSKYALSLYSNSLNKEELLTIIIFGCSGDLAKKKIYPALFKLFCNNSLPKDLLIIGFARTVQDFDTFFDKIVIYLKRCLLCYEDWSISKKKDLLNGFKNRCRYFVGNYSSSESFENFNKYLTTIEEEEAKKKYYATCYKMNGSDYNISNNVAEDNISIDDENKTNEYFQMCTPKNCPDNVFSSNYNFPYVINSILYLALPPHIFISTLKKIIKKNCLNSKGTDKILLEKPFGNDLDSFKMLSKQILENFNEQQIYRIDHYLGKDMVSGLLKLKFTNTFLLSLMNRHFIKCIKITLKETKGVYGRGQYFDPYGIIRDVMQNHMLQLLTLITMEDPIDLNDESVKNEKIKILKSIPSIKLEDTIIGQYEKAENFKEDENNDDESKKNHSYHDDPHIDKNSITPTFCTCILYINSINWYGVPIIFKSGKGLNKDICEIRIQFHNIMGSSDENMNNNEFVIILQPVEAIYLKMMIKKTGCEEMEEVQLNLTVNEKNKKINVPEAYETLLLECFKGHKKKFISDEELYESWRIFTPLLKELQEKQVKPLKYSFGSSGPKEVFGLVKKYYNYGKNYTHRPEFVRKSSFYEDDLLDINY
Procedure, shortened: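 Direct NADPH read without coupling: PfGluPho (0.4 μg/mL enzyme solution) in 50 mM Tris pH 7.5, 0.005% Tween 20, 1 mg/mL BSA; substrate 40 μM G6P, 6 μM NADP+, 6.6 mM MgCl2.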

[2] = biological target: T1, Glucose-6-phosphate 1-dehydrogenase; assay: Inhibition of Plasmodium falciparum glucose-6-phosphate dehydrogenase after 2 hrs by resazurin/diaphorasecoupled assay

SMILES: O=C1Nc2cc(C(=O)NCCCN3CCCC3)ccc2S/C1=C\c1cccc(Cl)c1
- IC50 [1]: 34.2 µM
- IC50 [2]: 17.9 µM
